Laboratory results from patent US20120142040.

System: H3K4me2-biotin peptide (1ARTKme2QTARKSTGGKAPRKQLYKbiotin)

Question: recombinant LSD1 (BPS Biosciences) was tested. Which “peptide methylation state after the demethylase assay (MassSQUIRM, MALDI mass spectrometry)” value did it give?
Answer: from completely di-methylated to 97% un-methylated
